# esBAF inh = SWI/SNF esBAF complex inhibition. reporter increase, % at 12.5 µM. mouse ES cells, Bmi1-luciferase knock-in reporter, 24 h; 100% = twice the neutral-well signal. AID 602393. 350,000 tested, 2% active; in the data active means activation above about 40%;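 further: 0% = median of the plate's neutral control wells and 100% = double that signal; a rise in the Bmi1 reporter signal indicates esBAF inhibition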
# C2C12 statin = protects C2C12 myotubes from simvastatin toxicity. 330,000 tested, 0.78% active. ATP luminescence, 48 h; scaled: DMSO 0, geranylgeraniol control 100. rescue of ATP level, % at 7.49 µM;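 active means mean ATP rescue above about 67%, or every replicate alone reaching that limit, limit read from the data, passing the limit was not always enough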;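 further: myotubes were challenged with 10 µM simvastatin during compound exposure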
# PglD inh = inhibitors of Campylobacter jejuni PglD acetyltransferase; purified PglD enzyme, DTNB colorimetric CoA detection; inhibition, % at 12.5 µM; 360,000 tested, 0.098% active; in the data active means inhibition above about 16%, passing the limit was not always enough
# Yeast UUG start = modulators of start codon recognition fidelity in yeast; activity score, % at 18.7 µM; actives 0.13% (n = 350,000); S. cerevisiae UUG-firefly luciferase reporter, luminescence/redox ratio;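 active = replicate mean at a twofold rise or more, about +100% in these data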;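 note: firefly luciferase made from a UUG start codon reports start codon fidelity; reporter light over untreated wells divided by growth signal over untreated wells; some hits fall short of that in this replicate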
# E-sel inducer = E-selectin induction on HUVECs; P16581; HUVEC E-selectin immunofluorescence imaging; normalized: neutral wells 0, TNF-alpha wells 100; activation, % at 7.58 µM; 260,000 tested, 0.37% active;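 active means mean E-selectin-positive cell signal at least 10% of the positive control, reached in at least 60% of replicates, without over 20% cell loss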
#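 Assay system: HUVEC primary endothelial cells. Input: 3,000 HUVEC seeded per well. Doses: one compound dose added by pin transfer. Read-out basis: % PE-positive cells. Benchmarks: TNF-alpha high, DMSO low. Detection: immunofluorescence imaging. Buffer or medium: EGM-2, gelatin.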
# PGC1a acetyl inh = modulators of PGC1a acetylation; U2OS PGC1a acetylation, AlphaScreen anti-acetyl-lysine; with virally co-expressed GCN5 acetyltransferase; AID 651687; 350,000 tested, 0.17% active; inhibition, % at 15.6 µM;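 active means every replicate shows inhibition of at least 40%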;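 further: 0% = neutral control wells and 100% = positive control wells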
# * marks the source's active call; other numbers are inactive results; nt = no result given. Sampled rows, rich in hits. Any-hit rate of the full collection: about 2.8%.
SMILES,esBAF inh,C2C12 statin,PglD inh,Yeast UUG start,E-sel inducer,PGC1a acetyl inh
CN(C)C(/C=C/Nc1ccc(Br)cc1)=C(C#N)C#N,nt,nt,nt,nt,0,3
Brc1ccc(N=C/C=C/C=C/Nc2ccc(Br)cc2)cc1,68*,9,-2,-15,nt,13
C[C@@H]1CCCCO[C@H](CN(C)CC2CCCCC2)[C@H](C)CN([C@@H](C)CO)C(=O)c2cc(NS(=O)(=O)c3ccc(Cl)cc3)ccc2O1,-5,nt,-1,26,0,-21
CCN(CC)c1ccc(/C=N\NC(N)=O)cc1,nt,nt,-4,-9,0,-4
CCN(CC)c1ccc(/C=N/NC(=O)OC(C)(C)C)cc1,70*,-23,5,1,0,-2
CCn1c(=O)c2cc(C(=O)NCC(OC)OC)sc2c2ccccc21,-7,0,7,2,66*,-6
CCOC(CNC(=O)c1cc2c(=O)n(CC)c3ccccc3c2s1)OCC,12,1,7,-7,0,5
CCCCN(CC)CCCNC(=O)c1cc2c(=O)n(CC)c3ccccc3c2s1,8,97*,-1,28,0,-53
CCn1c(=O)c2cc(C(=O)NCCCOC)sc2c2ccccc21,-6,-16,4,7,53*,nt
C[C@H]1CN([C@@H](C)CO)C(=O)Cc2cc(NC(=O)CCN3CCOCC3)ccc2O[C@H]1CN(C)Cc1ccccc1,0,7,0,9,0,nt
C[C@@H]1CN([C@H](C)CO)C(=O)c2cc(-c3ccc(F)cc3)cnc2O[C@H]1CN(C)CC1CCCC1,-3,-18,4,13,2,2
O=C(Cc1ccccn1)N[C@@H]1CC[C@@H](CC(=O)N2CCCCC2)O[C@H]1CO,-4,0,6,-1,1,7
CC(=O)/C=C\c1ccccc1OC(=O)c1cc2ccccc2oc1=O,12,16,2,-3,nt,10
O=C(/C=C\c1ccccc1OC(=O)c1ccccc1F)c1cc2ccccc2o1,49*,7,nt,-6,nt,-9
Nc1c(Br)cc2oc(-c3ccccc3)nc2c1Br,58*,11,-2,-11,nt,-12
COc1ccc(-c2nc3c(Br)c(N)c(Br)cc3o2)cc1,nt,nt,0,-4,nt,-4
O=C1NC(=O)C2(CCc3ccccc32)N1 (stereo not drawn),-8,65*,2,-6,nt,1
Cc1ccc(S(=O)(=O)Nc2cccc3c2O[C@H](CN(C)Cc2ccc4c(c2)OCO4)[C@@H](C)CN([C@H](C)CO)C3=O)cc1,-3,4,0,4,0,-9
CC1(C)CC(=O)C2=C(C1)Nc1ccccc1NC2c1ccc(F)cc1 (stereo not drawn),3,11,0,-6,nt,nt
O=C1NCC2=C1C(c1ccc(Br)cc1)Nc1ccccc1N2 (stereo not drawn),58*,7,4,3,nt,1
C[C@@H]1CCCCO[C@@H](CN(C)Cc2ccc(C(F)(F)F)cc2)[C@H](C)CN([C@@H](C)CO)C(=O)c2cc(NC(=O)C3CCCCC3)ccc2O1,1,nt,-3,14,0,-4
CC(=O)N1N=C(c2ccc(Br)cc2)CC1c1ccc(Br)cc1 (stereo not drawn),61*,-10,-2,-4,0,nt
COc1ccc2c3c([nH]c2c1)[C@@H](CO)N(C(=O)CN(C)C)CC31CN(CC2CCCC2)C1,nt,nt,nt,nt,0,nt
O=C(Cc1ccncc1)NCC[C@H]1CC[C@@H](NC(=O)Nc2ccc(F)cc2)[C@@H](CO)O1,3,-3,-4,-9,0,-2
CCN(Cc1ccccc1)C(=O)CSc1ccccc1C(=O)O,nt,nt,nt,nt,4,nt
CCN(CC)C(=O)CSc1ccccc1N,9,116*,6,-11,nt,5
C[C@@H]1CN([C@H](C)CO)C(=O)Cc2cc(NS(=O)(=O)c3ccccc3)ccc2O[C@H]1CN(C)CC1CC1,6,-16,0,-12,nt,-7
CCCN1[C@H](C(=O)OC)[C@@H](CO)[C@@H]2Cn3c(ccc(-c4cccc(C(=O)N(C)C)c4)c3=O)[C@@H]21,nt,nt,nt,nt,0,-1
O=C(O)CSc1nc(-c2ccccc2)nc2c1oc1ccccc12,-5,120*,-8,-17,nt,5
C=CCc1ccc(OCc2ccc(C(=O)Nc3ccc(NC(C)=O)cc3)o2)c(OC)c1,47*,-24,2,-7,0,nt
COc1ccccc1NC(=O)c1ccc(COc2ccccc2OC)o1,8,1,2,9,nt,3
O=c1[nH]cnc2scc(-c3ccsc3)c12,-5,117*,3,-23,nt,-4
COc1ccc(C2=CC(=O)CC(c3ccc(OC)cc3)C2)cc1 (stereo not drawn),12,4,0,-8,0,nt
O=C1C=C(c2ccc(C(=O)O)cc2)C[C@@H](c2ccc(F)cc2)C1,45*,1,0,-8,0,nt
CCOc1ccc(C2=CC(=O)C[C@H](c3ccc(OC)cc3)C2)cc1,76*,-42,-1,-3,0,nt
CCC(=O)N(C)C[C@H]1Oc2cc(C#Cc3ccncc3)ccc2S(=O)(=O)N([C@@H](C)CO)C[C@@H]1C,5,0,-3,-11,1,-11
CCOC(=O)C1=NN(C(=O)Nc2ccc(OC)cc2)C2C(=O)N(c3cccc(C(F)(F)F)c3)C(=O)C12 (stereo not drawn),-6,102*,8,-5,nt,-5
COc1cc2c(cc1[N+](=O)[O-])-c1ccc([N+](=O)[O-])cc1C2,35,19,-2,-9,0,7
COc1cc2c(cc1[N+](=O)[O-])-c1ccccc1C2,42*,5,-5,-12,nt,-9
C[C@H](CO)N1C[C@H](C)[C@@H](CN(C)Cc2ccc(C(F)(F)F)cc2)Oc2ccc(NC(=O)c3ccncc3)cc2CC1=O,0,47,3,-1,0,11

# Single records, from the list above:
# O=C1C=C(c2ccc(C(=O)O)cc2)C[C@@H](c2ccc(F)cc2)C1 reads esBAF inh = 45*; C2C12 statin = 1; PglD inh = 0; Yeast UUG start = -8; E-sel inducer = 0; PGC1a acetyl inh = nt
# O=C1NC(=O)C2(CCc3ccccc32)N1 (stereo not drawn) reads esBAF inh = -8; C2C12 statin = 65*; PglD inh = 2; Yeast UUG start = -6; E-sel inducer = nt; PGC1a acetyl inh = 1

# (listing goes on)
SMILES,esBAF inh,C2C12 statin,PglD inh,Yeast UUG start,E-sel inducer,PGC1a acetyl inh
CN(CC(=O)Nc1cccc(F)c1)C(=O)CCCNC(=O)c1ccc(Cl)cc1,54*,1,-1,-28,nt,nt
CN1C(=O)c2cc(NC(=O)Cc3cccs3)ccc2OC[C@H]2O[C@H](CC(=O)NCC3CC3)CC[C@@H]21,-2,3,4,14,0,-5
C[C@@H]1CN([C@H](C)CO)C(=O)c2cc(NC(=O)Nc3cccc4ccccc34)ccc2O[C@@H](C)CCCCO[C@H]1CN(C)Cc1ccc2c(c1)OCO2,-3,-540,1,-3,1,5
CCCCCCOc1ccc(-c2ccc(C#N)cn2)cc1,-5,-4,-8,-20,nt,1
CCCCCc1ccc2cc(C#N)ccc2n1,48*,-14,3,-5,0,5
COc1ccc(C2NC(c3ccc(OC)c(OC)c3OC)C(C)C(=O)C2C)c(OC)c1OC (stereo not drawn),2,86*,-2,8,nt,-21

# Fetched one by one from above (2):
SMILES,esBAF inh,C2C12 statin,PglD inh,Yeast UUG start,E-sel inducer,PGC1a acetyl inh
COc1ccc(-c2nc3c(Br)c(N)c(Br)cc3o2)cc1,nt,nt,0,-4,nt,-4
C[C@@H]1CCCCO[C@@H](CN(C)Cc2ccc(C(F)(F)F)cc2)[C@H](C)CN([C@@H](C)CO)C(=O)c2cc(NC(=O)C3CCCCC3)ccc2O1,1,nt,-3,14,0,-4

# High-throughput results: PubChem BioAssay, Broad Institute
